The values that follow come from patent US9714247B2, “Multiple kinase pathway inhibitors” (Mannkind Corporation, priority 2012, dated 2017).

The chains behind the UniProt entries cited, without tags or fusion partners. Where a name states a change or a piece, a line headed by the entry shows the natural chain unless it says otherwise.
UniProt Q06187: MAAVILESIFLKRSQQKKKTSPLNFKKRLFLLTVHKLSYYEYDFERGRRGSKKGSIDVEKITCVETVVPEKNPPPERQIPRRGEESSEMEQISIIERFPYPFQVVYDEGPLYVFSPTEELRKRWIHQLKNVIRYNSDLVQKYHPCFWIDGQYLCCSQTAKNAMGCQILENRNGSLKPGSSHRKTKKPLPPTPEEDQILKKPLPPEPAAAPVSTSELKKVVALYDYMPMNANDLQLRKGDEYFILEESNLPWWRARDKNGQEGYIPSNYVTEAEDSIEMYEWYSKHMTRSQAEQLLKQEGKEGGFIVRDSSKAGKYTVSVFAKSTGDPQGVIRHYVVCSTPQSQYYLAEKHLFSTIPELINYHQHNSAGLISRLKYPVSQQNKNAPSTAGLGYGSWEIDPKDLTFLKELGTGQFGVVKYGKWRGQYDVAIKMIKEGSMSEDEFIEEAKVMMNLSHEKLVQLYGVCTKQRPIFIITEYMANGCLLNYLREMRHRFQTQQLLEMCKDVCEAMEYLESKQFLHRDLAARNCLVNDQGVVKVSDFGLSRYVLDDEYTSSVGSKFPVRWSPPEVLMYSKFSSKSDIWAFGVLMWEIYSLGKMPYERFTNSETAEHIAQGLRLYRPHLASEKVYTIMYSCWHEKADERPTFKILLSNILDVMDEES
UniProt P12931, whole entry, looked up: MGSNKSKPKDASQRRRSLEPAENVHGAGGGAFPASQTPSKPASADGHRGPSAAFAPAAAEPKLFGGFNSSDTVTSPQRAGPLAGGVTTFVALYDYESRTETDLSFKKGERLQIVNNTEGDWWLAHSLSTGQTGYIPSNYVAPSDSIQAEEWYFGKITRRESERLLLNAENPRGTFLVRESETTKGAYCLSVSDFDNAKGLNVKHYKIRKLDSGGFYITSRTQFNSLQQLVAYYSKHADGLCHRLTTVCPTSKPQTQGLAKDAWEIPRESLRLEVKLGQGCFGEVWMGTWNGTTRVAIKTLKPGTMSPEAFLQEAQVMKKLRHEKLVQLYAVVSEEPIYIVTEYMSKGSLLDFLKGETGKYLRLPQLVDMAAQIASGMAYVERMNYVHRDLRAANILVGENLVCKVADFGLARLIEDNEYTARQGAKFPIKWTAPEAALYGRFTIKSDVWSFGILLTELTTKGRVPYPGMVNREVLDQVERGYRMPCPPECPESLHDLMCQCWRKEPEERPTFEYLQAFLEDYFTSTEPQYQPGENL

Read-outs that look alike come from different tables or passages of the source.

The target of test [1] is BTK (Homo sapiens (Human), UniProt Q06187).
Test [2] has as its target T1, Src (Homo sapiens (Human), UniProt P12931). The note with it: read-out: Src IC50.
Test [3] addresses T1, Src. The test can be described thus: biochemical.

The molecule `O=c1c(-c2c(F)cccc2F)cc2cnc(Nc3ccc(F)cn3)cc2n1-c1ccccc1` [Compound 81, 3-(2,6-difluorophenyl)-7-((5-fluoropyridin-2-yl)amino)-1-phenyl-1,6-naphthyridin-2(1H)-one] showed an IC50 in test [1] of 100 to 1000 nM.

In test [1], `CN1CCC(n2c(=O)c(-c3c(F)cccc3F)cc3cnc(Nc4ccc(F)cn4)cc32)C1` (stereo not drawn) [Compound 85, 3-(2,6-difluorophenyl)-7-((5-fluoropyridin-2-yl)amino)-1-(1-methylpyrrolidin-3-yl)-1,6-naphthyridin-2(1H)-one] came in with an IC50 of 1000 to 5000 nM.

Molecule `CCN(CC)CCOc1ccc(Nc2cc3c(cn2)cc(-c2ccccc2)c(=O)n3CC)cc1` [Compound 86] came in with a half-inhibitory concentration (IC50) in test [1] of 100 to 1000 nM.

The molecule `O=c1c(-c2c(F)cccc2F)cc2cnc(Nc3ccc(F)cn3)cc2n1C1CCOCC1` [Compound 80, 3-(2,6-difluorophenyl)-7-((5-fluoropyridin-2-yl)amino)-1-(tetrahydro-2H-pyran-4-yl)-1,6-naphthyridin-2(1H)-one] had a half-maximal inhibitory concentration (IC50) in test [1] of 100 to 1000 nM.

Molecule `CN1CC[C@@H](n2c(=O)c(-c3c(F)cccc3F)cc3cnc(Nc4ccc(F)cn4)cc32)C1` [Compound 152, (R)-3-(2,6-difluorophenyl)-7-((5-fluoropyridin-2-yl)amino)-1-(1-methylpyrrolidin-3-yl)-1,6-naphthyridin-2(1H)-one] displayed a half-inhibitory concentration (IC50) in test [1] of 100 to 1000 nM.

Consider `CCn1c(=O)c(-c2cc(OC)ccc2F)cc2cnc(Nc3ccc(N(C)C4CCN(C)CC4)cn3)cc21` [Compound 119, 1-ethyl-3-(2-fluoro-5-methoxyphenyl)-7-((5-(methyl(1-methylpiperidin-4-yl)amino)pyridin-2-yl)amino)-1,6-naphthyridin-2(1H)-one], for which the IC50 in test [2] was below 100 nM.

For `O=c1c(-c2c(F)cccc2F)cc2cnc(Nc3ccc(F)cn3)cc2n1C1CCOC1` (stereo not drawn) [Compound 83, 3-(2,6-difluorophenyl)-7-((5-fluoropyridin-2-yl)amino)-1-(tetrahydrofuran-3-yl)-1,6-naphthyridin-2(1H)-one], in test [1], the 50% inhibitory concentration (IC50) lay in the range of 100 to 1000 nM.

As to `O=c1c(-c2c(F)cccc2F)cc2cnc(Nc3ccc(F)cn3)cc2n1C1CCOC1` (single isomer, unassigned) [Compound 142, (R or S)-3-(2,6-difluorophenyl)-7-((5-fluoropyridin-2-yl)amino)-1-(tetrahydrofuran-3-yl)-1,6-naphthyridin-2(1H)-one], in test [1] (read-out: BTK IC50), the IC50 is below 100 nM.

Take `CCn1c(=O)c(-c2cc(SC)ccc2F)cc2cnc(Nc3ccc(N(C)C4CCN(C)CC4)cn3)cc21` [Compound 116, 1-ethyl-3-(2-fluoro-5-(methylthio)phenyl)-7-((5-(methyl(1-methylpiperidin-4-yl)amino)pyridin-2-yl)amino)-1,6-naphthyridin-2(1H)-one]: the IC50 in test [1] was below 100 nM; in test [3], 100 to 1000 nM.

On to `O=c1c(-c2c(F)cccc2F)cc2cnc(Nc3ccc(F)cn3)cc2n1C1CCOC1` (single isomer, unassigned) [Compound 141, (S or R)-3-(2,6-difluorophenyl)-7-((5-fluoropyridin-2-yl)amino)-1-(tetrahydrofuran-3-yl)-1,6-naphthyridin-2(1H)-one], for which the IC50 in test [1] is below 100 nM.

On to `CN1CC[C@H](n2c(=O)c(-c3c(F)cccc3F)cc3cnc(Nc4ccc(F)cn4)cc32)C1` [Compound 150, (S)-3-(2,6-difluorophenyl)-7-((5-fluoropyridin-2-yl)amino)-1-(1-methylpyrrolidin-3-yl)-1,6-naphthyridin-2(1H)-one], for which the half-inhibitory concentration (IC50) in test [1] (read-out: BTK IC50) is below 100 nM.

One may read the IC50 as the concentration that inhibits the measured activity by half.
